Molecular target: ERα protein (HiBiT-tagged) in ESR1_HiBiT KI MCF7 cells (Homo sapiens, UniProt P03372)
Test: Nano Glo HiBiT Lytic Degradation Assay
Format: cell-based
Settings: read-out: MCF7 ESR1 HiBiT - (DC50), 6 hours with compound, 14-point dose response 1:3, bell-shape curve fit, half-maximal effect of first Hill model

Chains of the proteins cited; added tags and fusions are not shown.
UniProt P03372, whole entry: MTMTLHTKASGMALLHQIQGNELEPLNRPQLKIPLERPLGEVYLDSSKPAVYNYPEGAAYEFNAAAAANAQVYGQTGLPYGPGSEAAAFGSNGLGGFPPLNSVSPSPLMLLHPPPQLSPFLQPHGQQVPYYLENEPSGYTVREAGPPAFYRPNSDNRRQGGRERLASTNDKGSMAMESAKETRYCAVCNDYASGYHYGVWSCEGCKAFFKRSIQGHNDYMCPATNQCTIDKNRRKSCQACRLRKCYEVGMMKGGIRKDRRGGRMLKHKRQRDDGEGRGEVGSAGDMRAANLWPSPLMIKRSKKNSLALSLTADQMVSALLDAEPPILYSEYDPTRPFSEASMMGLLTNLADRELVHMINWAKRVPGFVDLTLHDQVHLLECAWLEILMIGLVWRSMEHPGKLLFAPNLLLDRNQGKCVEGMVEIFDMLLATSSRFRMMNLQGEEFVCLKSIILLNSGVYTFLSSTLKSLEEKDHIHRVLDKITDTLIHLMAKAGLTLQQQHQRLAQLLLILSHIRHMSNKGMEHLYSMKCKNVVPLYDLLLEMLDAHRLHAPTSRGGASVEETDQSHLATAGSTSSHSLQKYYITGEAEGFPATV

Structure (SMILES) | DC50 [nM]
O=C1CC[C@H](N2Cc3cc(N4CCN(CC5CCN(c6ccc([C@H]7c8ccc(O)cc8CO[C@]78CCCc7ccccc78)cc6)CC5)CC4)ccc3C2=O)C(=O)N1 | 8
O=C1CC[C@H](N2Cc3cc(N4CCN(CC5CCN(c6ccc([C@@H]7c8ccc(O)cc8CC[C@@H]7C7CCCCCC7)cc6)CC5)CC4)ccc3C2=O)C(=O)N1 | 1.1
C[C@@]1(c2ccccc2)CCc2cc(O)ccc2[C@H]1c1ccc(N2CCC(CN3CCN(c4ccc5c(c4)CN([C@H]4CCC(=O)NC4=O)C5=O)CC3)CC2)cc1 | 8
O=C1CC[C@H](N2Cc3cc(N4CCN(CC5CCN(c6ccc([C@@H]7c8ccc9[nH]ncc9c8CC[C@@H]7c7ccccc7)cc6)CC5)CC4)ccc3C2=O)C(=O)N1 | ≥ 10000
O=C1CC[C@H](N2Cc3cc(N4CCN(CC5CCN(c6ccc([C@H]7c8ccc(O)cc8CO[C@H]7C7CCCC7)cc6)CC5)CC4)ccc3C2=O)C(=O)N1 | 11
O=C1CC[C@H](N2Cc3cc(N4CCN(CC5CCN(c6ccc([C@@H]7c8ccc(O)cc8CO[C@@H]7C7CCCC7)cc6)CC5)CC4)ccc3C2=O)C(=O)N1 | 0.26
O=C1CCC(c2ccc(NC3CCN(CC4CCN(c5ccc([C@@H]6c7ccc(O)cc7CC[C@@H]6c6ccccc6)cc5)CC4)CC3)cc2)C(=O)N1 (stereo partly drawn) | 182
O=C1CC[C@H](N2Cc3cc(N4CCN(CC5CCN(c6ccc([C@H]7c8ccc(O)cc8CC[C@H]7CC(F)(F)F)cc6)CC5)CC4)ccc3C2=O)C(=O)N1 | 1100
Nc1ccc2c(c1)CC[C@H](c1ccccc1)[C@@H]2c1ccc(N2CCC(CN3CCN(c4ccc5c(c4)CN([C@H]4CCC(=O)NC4=O)C5=O)CC3)CC2)cc1 | 0.85

Source: patent US20250388565A1, “ESTROGEN RECEPTOR ALPHA DEGRADERS AND METHODS OF USE THEREOF” (Relay Therapeutics, Inc., priority 2022, published 2025)
